Assay [1] has as its target T1, human recombinant AKR1B1 (Homo sapiens, UniProt P15121).
T1 construct: made in house
The assay can be described thus: AKR1B1 activity inhibition, decrease in absorbance at 340 nm linked to NADPH oxidation. The settings on record: 10 mU AKR1B1, 37 °C, pH 6.8, 95% CLs in text. It counts as biochemical. As to the method:
(§1) The AKR1B1 activity was determined at 37 °C, as previously described, monitoring the decrease in absorbance at 340 nm linked to NADPH oxidation (ε340 = 6.22 mM^−1·cm^−1) using a Biochrom Libra S60 spectrophotometer. The standard assay mixture (0.7 mL) contained 0.25 M sodium phosphate buffer pH 6.8, 0.18 mM NADPH, 0.4 M ammonium sulfate, 0.5 mM EDTA, and 4.7 mM GAL. One unit of enzyme activity is the amount of enzyme that catalyzes the conversion of 1 µmol of substrate/min in the above assay conditions.
IC50 values were determined by non-linear regression analysis using GraphPad Prism version 7.04 (GraphPad Software, San Diego, CA, USA). Values were obtained from at least six different inhibitors concentrations (each assayed at least in triplicate) and are reported with their 95% Confidence Limits (CLs). […] The final concentration of ethanol in the assay was never higher than 1%. […] The percentage of inhibition was calculated referring to an assay performed using the same solvent concentration in the absence of inhibitors.
(§2) The human recombinant AKR1B1 was expressed and purified to electrophoretic homogeneity, as previously described. […] The purified enzyme was stored at −80 °C in a 10 mM sodium phosphate buffer pH 7.0 containing 2 mM DTT and 30% (w/v) glycerol. Before use, AKR1B1 was extensively dialyzed against 10 mM sodium phosphate buffer pH 7.0.

Assay [2] addresses T1, human recombinant AKR1B1. The assay is described as follows: Inhibition kinetic analysis of AKR1B1-dependent reduction of L-idose, HNE and GSHNE. The assay is classed as biochemical. The procedure:
as §1, §2
The kinetic parameters ^appkcat and ^appKM were evaluated by non-linear regression analysis of rate measurements vs. substrate concentration according to Michaelis-Menten equation. The analysis was performed through GraphPad Prism 7.04 software by a non-linear “Robust Regression” analysis in which each point is individually weighted through iterative weighing of the smallest squares. The same approach was adopted to analyze the dependence of ^appkcat, ^appKM, and ^appKM/^appkcat from the concentration of the inhibitors [I], making use of previously derived equations [27] (see text).
The hyperbolic kinetic equation for an incomplete mixed type of inhibition analyzed with both branches of product formation at the steady state and with the inhibitor binding at equilibrium, was defined using the apparent kinetic parameters ^appKM and ^appkcat (Equations (1)–(3), see ref [27] for further details). (1) kappcat=Ki*k+2+k+4[I]/Ki*+[I] (2) appKM=KMKi*+(Ki*/KiKM+k+4/k+1)[I]+k+4/Kik+1[I]^2/Ki*+[I] (3) appKM/appkcat= KMKi*+(Ki*/KiKM+k+4/k+1)[I]+k+4/Kik+1[I]^2/Ki*k+2+k+4[I]
Thus, ^appkcat and ^appKM values emerging from non-linear regression analysis of primary data (Figure 3) were analyzed through non-linear regression using Equations (1) and (2), respectively. […] The above starting values of kcat and KM derived from at least 20 independent experiments in which kinetic parameters were measured in the absence of inhibitors. […] The k+4 values are reported in Table 1 as the average of values emerging from ^appKM/^appkcat versus [I] (Equation (3) or Equation (4)) and 1/^appkcat versus [I] (Equation (1)) plots.

Drawing on publication PMC9495972, “Dissecting the Activity of Catechins as Incomplete Aldose Reductase Differential Inhibitors through Kinetic and Computational Approaches” (Biology, 2022), this text covers IC50 and Ki for one substance.

Where two headings read alike, the source gives them in different places.

For orientation: IC50 means the point on the concentration scale where inhibition reaches its midpoint. In the case of catechin gallate [CG], the IC50 was determined as 28 µM in assay [1] (read-out: IC50 for GSHNE reduction, 0.045 mM GSHNE as substrate); 26 µM in assay [1] (read-out: IC50 for HNE reduction, 0.03 mM HNE as substrate); 7 µM in assay [1] (read-out: IC50 for the reduction of L-idose, 8 mM L-idose as substrate). The Ki in assay [2] (GSHNE reduction, apparent dissociation constant of ternary complex EIS) is 5 ± 0.2 µM; in assay [2] (HNE reduction, apparent dissociation constant of ternary complex EIS) it was 4.5 ± 0.4 µM; in assay [2] (L-idose reduction, apparent dissociation constant of ternary complex EIS), 4.1 ± 0.2 µM; in assay [2] (L-idose reduction, dissociation constant of enzyme-inhibitor complex), 246 ± 170 µM.
